Assay results published in ChEMBL document CHEMBL1201862, “PubChem BioAssay data set” (2004).
Only a part is listed here, and it is no random draw. These assays gave more results; the selection is not random. Calls of active or inactive are those of the source. No cut-off for these calls is given here.

Amino acid sequences for entries named in this document (tags omitted). A change or cut given only in a name is not applied to a line headed by its entry.
UniProt O75496: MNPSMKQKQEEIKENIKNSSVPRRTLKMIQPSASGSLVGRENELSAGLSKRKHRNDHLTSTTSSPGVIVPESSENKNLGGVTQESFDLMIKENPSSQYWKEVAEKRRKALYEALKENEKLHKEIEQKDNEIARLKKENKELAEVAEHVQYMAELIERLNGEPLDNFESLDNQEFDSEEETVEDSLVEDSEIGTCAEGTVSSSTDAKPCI

Biological target: Geminin (Homo sapiens) (UniProt O75496)
Assay: A quantitative high throughput screen for small molecules that induce DNA re-replication in SW480 colon adenocarcinoma cells.
Type: functional, cell-based

| Compound | Potency |
| --- | --- |
| O=C(O)/C=C\C(=O)O | inactive |
| O=C(O)/C=C/C(=O)O | inactive |
